pKi: −log10 of the molar value. A value given as a limit tells only on which side of the number the result lay.

By UniProt entry, the sequences of proteins in these tests, tags left out. Residues count along the entry.
UniProt P27958, 1027-1657: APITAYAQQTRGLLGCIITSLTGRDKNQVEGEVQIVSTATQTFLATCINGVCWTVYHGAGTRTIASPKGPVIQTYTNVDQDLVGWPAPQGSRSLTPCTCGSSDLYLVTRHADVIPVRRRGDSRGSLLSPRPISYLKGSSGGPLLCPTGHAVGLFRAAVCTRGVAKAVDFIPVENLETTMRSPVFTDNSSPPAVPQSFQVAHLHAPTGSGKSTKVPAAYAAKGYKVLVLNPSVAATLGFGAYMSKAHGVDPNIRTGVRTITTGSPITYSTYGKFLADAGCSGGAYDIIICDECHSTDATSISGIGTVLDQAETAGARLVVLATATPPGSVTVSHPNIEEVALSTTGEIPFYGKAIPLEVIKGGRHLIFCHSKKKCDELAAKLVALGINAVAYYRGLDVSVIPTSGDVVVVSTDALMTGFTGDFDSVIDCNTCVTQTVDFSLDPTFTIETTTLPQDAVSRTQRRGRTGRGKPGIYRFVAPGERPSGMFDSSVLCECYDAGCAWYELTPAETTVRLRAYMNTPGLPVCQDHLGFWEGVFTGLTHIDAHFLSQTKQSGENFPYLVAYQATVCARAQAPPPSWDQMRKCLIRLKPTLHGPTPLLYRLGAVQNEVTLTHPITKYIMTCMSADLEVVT
UniProt P27958, 1658-1711: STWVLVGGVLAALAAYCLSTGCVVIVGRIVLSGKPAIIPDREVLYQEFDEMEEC

Among the data in patent US7759499B2, “Compounds as inhibitors of hepatitis C virus NS3 serine protease” (Schering Corporation, priority 2004, dated 2010) are Ki values, retold here.

The first experiment addresses Recombinant heterodimeric HCV NS3/NS4A protease (strain 1a) (Hepatitis C virus genotype 1a, UniProt P27958). Put plainly: Spectrophotometric assay for HCV protease inhibitory activity. The format is biochemical. The note with it: Table 1, range.
On to `CN(C[C@@H](NC(=O)N[C@H](C(=O)N1C[C@H]2[C@@H]([C@H]1C(=O)NC(CC1CC1)C(=O)C(N)=O)C2(C)C)C(C)(C)C)C(C)(C)C)S(=O)(=O)N1CCCCC1` (stereo partly drawn) [Compound 10034], for which the pKi was at least 7.12.

`CN(C)S(=O)(=O)N(C)C[C@@H](NC(=O)N[C@H](C(=O)N1C[C@H]2[C@@H]([C@H]1C(=O)N[C@H](CC1CC1)C(=O)C(N)=O)C2(C)C)C(C)(C)C)C(C)(C)C` [Compound 10021]: the pKi is at least 7.12. Consider `C=CCNC(=O)C(=O)C(CCC)NC(=O)[C@@H]1[C@@H]2[C@H](CN1C(=O)[C@@H](NC(=O)N[C@H](CN(C)S(=O)(=O)N(C)C)C(C)C)C(C)(C)C)C2(C)C` (stereo partly drawn) [Compound 10010], for which the pKi was at least 7.12. In the case of `C=CCNC(=O)C(=O)C(CCC)NC(=O)[C@@H]1[C@@H]2[C@H](CN1C(=O)[C@@H](NC(=O)N[C@H](CNS(=O)(=O)NCCCCl)C(C)(C)C)C(C)(C)C)C2(C)C` (stereo partly drawn) [Compound 10041], the pKi was at least 7.12.

For the molecule `C=CCNC(=O)C(=O)C(CCC)NC(=O)[C@@H]1[C@@H]2[C@H](CN1C(=O)[C@@H](NC(=O)N[C@H](CN(C)S(=O)(=O)N(C)C(=O)OCc1ccccc1)C(C)(C)C)C1CCCCC1)C2(C)C` (stereo partly drawn) [Compound 10229], the pKi is at least 7.12.

Staying with this experiment, now noted: Table 2, range.
As for `C=CCNC(=O)C(=O)C(CCCC)NC(=O)[C@@H]1[C@@H]2[C@H](CN1C(=O)[C@@H](NC(=O)N[C@H](CC(C)S(=O)(=O)c1cc(CN(C)C(=O)c3ccccc3)cs1)C(C)(C)C)C(C)(C)C)C2(C)C` (stereo partly drawn) [Compound 11360], the pKi is at least 7.12. Regarding `C=CCNC(=O)C(=O)C(CCCC)NC(=O)[C@@H]1[C@@H]2[C@H](CN1C(=O)[C@@H](NC(=O)N[C@H](CN(C)S(=O)(=O)CC)C(C)(C)C)C1(C)CCCCC1)C2(C)C` (stereo partly drawn) [Compound 11319], the pKi was at least 7.12. Same read-out and setting: then `CCCC(NC(=O)[C@@H]1[C@@H]2[C@H](CN1C(=O)[C@@H](NC(=O)N[C@H](CN(C)S(C)(=O)=O)[C@@H](C)CC)C(C)(C)C)C2(C)C)C(=O)C(=O)NCCC(F)(F)F` (stereo partly drawn) [Compound 11125], with at least 7.12. With `CC(C)(C)[C@H](NC(=O)N[C@H](CN(CC1CCCCC1)S(C)(=O)=O)C(C)(C)C)C(=O)N1C[C@H]2[C@@H]([C@H]1C(=O)NC(CC1CCC1)C(=O)C(N)=O)C2(C)C` (stereo partly drawn) [Compound 11174], the negative logarithm of the Ki (pKi) is at least 7.12. Consider `CCCCC(NC(=O)[C@@H]1[C@@H]2[C@H](CN1C(=O)[C@@H](NC(=O)N[C@H](CN(C)S(C)(=O)=O)C(C)(C)C)C1(C)CCCCC1)C2(C)C)C(=O)C(=O)NCC` (stereo partly drawn) [Compound 11199], for which the pKi is at least 7.12. The same measure, in the same setting: then `C=CCNC(=O)C(=O)C(CC1CC1)NC(=O)[C@@H]1[C@@H]2[C@H](CN1C(=O)[C@@H](NC(=O)NC1(CN(C)S(C)(=O)=O)CCCCC1)C(C)(C)C)C2(C)C` (stereo partly drawn) [Compound 11025], with at least 7.12; and `CN(C[C@@H](NC(=O)N[C@H](C(=O)N1C[C@H](OC(C)(C)C)C[C@H]1C(=O)NC(CC1CC1)C(=O)C(N)=O)C1CCCCC1)C(C)(C)C)S(C)(=O)=O` (stereo partly drawn) [Compound 11186], with at least 7.12; and `C#CCNC(=O)C(=O)C(CCCC)NC(=O)[C@@H]1[C@@H]2[C@H](CN1C(=O)[C@@H](NC(=O)N[C@H](CN(C)S(C)(=O)=O)C(C)(C)C)C1Cc3ccccc3C1)C2(C)C` (stereo partly drawn) [Compound 11272], with at least 7.12. In the case of `CN(CC1(NC(=O)N[C@H](C(=O)N2C[C@H]3[C@@H]([C@H]2C(=O)NC(CC2CC2)C(=O)C(N)=O)C3(C)C)C(C)(C)C)CCCCC1)S(C)(=O)=O` (stereo partly drawn) [Compound 11026], the pKi is at least 7.12. For the molecule `C=CCNC(=O)C(=O)C(CC1CC1)NC(=O)[C@@H]1[C@@H]2[C@H](CN1C(=O)[C@@H](NC(=O)N[C@H](CN(C)S(=O)(=O)c1cccs1)C(C)(C)C)C1CCCCC1)C2(C)C` (stereo partly drawn) [Compound 11123], the pKi was at least 7.12.

On to `C#CCCC(NC(=O)[C@@H]1C[C@@H](OC(C)(C)C)CN1C(=O)[C@@H](NC(=O)N[C@H](CN(C)S(C)(=O)=O)C(C)(C)C)C1CCCCC1)C(=O)C(=O)NCC=C` (stereo partly drawn) [Compound 11192], for which the pKi was at least 7.12. Consider `C=CCNC(=O)C(=O)C(CCCC)NC(=O)[C@@H]1[C@@H]2[C@H](CN1C(=O)[C@@H](NC(=O)N[C@H](CN(C)S(=O)(=O)c1cn(C)cn1)C(C)(C)C)C(C)(C)C)C2(C)C` (stereo partly drawn) [Compound 11331], for which the pKi is at least 7.12. On the same count and under the same terms, then `C=CCNC(=O)C(=O)C(CC1CC1)NC(=O)[C@@H]1[C@@H]2[C@H](CN1C(=O)[C@@H](NC(=O)N[C@H]1CCCC[C@H]1N(C)S(C)(=O)=O)C(C)(C)C)C2(C)C` (stereo partly drawn) [Compound 11283], with below 6.60. With `CCN(C[C@@H](NC(=O)N[C@H](C(=O)N1C[C@H]2[C@@H]([C@H]1C(=O)NC(CC1CCC1)C(=O)C(N)=O)C2(C)C)C(C)(C)C)C(C)(C)C)S(=O)(=O)c1cccs1` (stereo partly drawn) [Compound 11221], the pKi was at least 7.12. Regarding `C=CCNC(=O)C(=O)C(CCCC)NC(=O)[C@@H]1[C@@H]2[C@H](CN1C(=O)[C@@H](NC(=O)N[C@H](CN(Cc1ccccc1)S(C)(=O)=O)C(C)(C)C)C(C)(C)C)C2(C)C` (stereo partly drawn) [Compound 11159], the pKi was at least 7.12. `CCS(=O)(=O)N(C)C[C@@H](NC(=O)N[C@H](C(=O)N1C[C@H]2[C@@H]([C@H]1C(=O)NC(CC1CCC1)C(=O)C(N)=O)C2(C)C)C1(C)CCCCC1)C(C)(C)C` (stereo partly drawn) [Compound 11326]: the pKi was at least 7.12.

Take `CC(C)[C@@H](CN(C)S(=O)(=O)c1ccccc1)NC(=O)N[C@H](C(=O)N1C[C@H]2[C@@H]([C@H]1C(=O)NC(CC1CC1)C(=O)C(N)=O)C2(C)C)C1CCCCC1` (stereo partly drawn) [Compound 11046]: the pKi was at least 7.12. For `CCCC(NC(=O)[C@@H]1[C@@H]2[C@H](CN1C(=O)[C@@H](NC(=O)N[C@H](CN(C)S(C)(=O)=O)C(C)(C)C)C(C)(C)C)C2(C)C)C(=O)C(N)=O` (stereo partly drawn) [Compound 11257], the pKi was at least 7.12.

As to `CC[C@H](C)[C@@H](CN(C)S(C)(=O)=O)NC(=O)N[C@H](C(=O)N1C[C@H]2[C@@H]([C@H]1C(=O)NC(CC1CCC1)C(=O)C(N)=O)C2(C)C)C(C)(C)C` (stereo partly drawn) [Compound 11100], the pKi was at least 7.12. `C=CCNC(=O)C(=O)C(CCC)NC(=O)[C@@H]1[C@@H]2[C@H](CN1C(=O)[C@@H](NC(=O)N[C@H](CN(C)S(=O)(=O)C1CC1)CC(C)(C)C)C(C)(C)C)C2(C)C` (stereo partly drawn) [Compound 11098]: the pKi is 6.60 to 7.12. As for `C=CCNC(=O)C(=O)C(CC1CC1)NC(=O)[C@@H]1[C@@H]2[C@H](CN1C(=O)[C@@H](NC(=O)N[C@H](CN(C)S(=O)(=O)C(F)(F)F)C(C)(C)C)C(C)(C)C)C2(C)C` (stereo partly drawn) [Compound 11092], the pKi is at least 7.12.

Turning to `C=CCNC(=O)C(=O)C(CCC(F)(F)F)NC(=O)[C@@H]1[C@@H]2[C@H](CN1C(=O)[C@@H](NC(=O)N[C@H](CN(C)S(=O)(=O)c1ccccn1)C(C)(C)C)C1CCCCC1)C2(C)C` (stereo partly drawn) [Compound 11296], the pKi is at least 7.12.

Consider `C=CCNC(=O)C(=O)C(CC1CC1)NC(=O)[C@@H]1[C@@H]2[C@H](CN1C(=O)[C@@H](NC(=O)N[C@H](CN(C)S(C)(=O)=O)C(C)(C)C)C1Cc3ccccc3C1)C2(C)C` (stereo partly drawn) [Compound 11261], for which the pKi was at least 7.12.

`C=CCNC(=O)C(=O)C(CC1CC1)NC(=O)[C@@H]1[C@@H]2[C@H](CN1C(=O)[C@@H](NC(=O)N[C@H](CN(C)S(=O)(=O)c1cc(F)ccc1C)C(C)(C)C)C(C)(C)C)C2(C)C` (stereo partly drawn) [Compound 11324]: the negative-log Ki (pKi) is at least 7.12.

Staying with this experiment, now noted: Table 3, range.
For the molecule `CC(C)[C@@H](CNS(=O)(=O)c1cccs1)NC(=O)N[C@H](C(=O)N1C[C@H]2[C@@H]([C@H]1C(=O)NC(CC1CC1)C(=O)C(N)=O)C2(C)C)C(C)(C)C` (stereo partly drawn) [Compound 12013], the pKi is at least 7.12.

The experiment is the same for the next values; noted with them: Table 4, range.
Regarding `C=CCNC(=O)C(=O)C(CCC)NC(=O)[C@@H]1[C@@H]2[C@H](CN1C(=O)[C@@H](NC(=O)N[C@H](CN(C)C(C)=O)C(C)(C)C)C(C)(C)C)C2(C)C` (stereo partly drawn) [Compound 13001], the pKi was at least 7.12.

Consider `CC(C)(C)[C@H](NC(=O)N[C@H](CNC(=O)c1ccccn1)C(C)(C)C)C(=O)N1C[C@H]2[C@@H]([C@H]1C(=O)NC(CC1CC1)C(=O)C(N)=O)C2(C)C` (stereo partly drawn) [Compound 13004], for which the pKi was at least 7.12. Consider `CNC(=O)C(=O)C(CC1CC1)NC(=O)[C@@H]1[C@@H]2[C@H](CN1C(=O)[C@@H](NC(=O)N[C@H](CN(C)C(C)=O)C(C)(C)C)C(C)(C)C)C2(C)C` (stereo partly drawn) [Compound 13016], for which the pKi is at least 7.12.

Still in this experiment, the particulars now being: Table 5, range.
Regarding `C#CCCC(NC(=O)[C@@H]1[C@@H]2[C@H](CN1C(=O)[C@@H](NC(=O)N[C@H](CN(C)C(=O)OC(C)(C)C)C(C)(C)C)C(C)(C)C)C2(C)C)C(=O)C(=O)NCC=C` (stereo partly drawn) [Compound 14052], the pKi was below 6.60. For `CN(C[C@H](CC(C)(C)C)NC(=O)N[C@H](C(=O)N1C[C@H]2[C@@H]([C@H]1C(=O)NC(CC1CC1)C(=O)C(N)=O)C2(C)C)C(C)(C)C)C(=O)OC(C)(C)C` (stereo partly drawn) [Compound 14046], the pKi is below 6.60.

As to `COC(=O)N(C)C[C@@H](NC(=O)N[C@H](C(=O)N1C[C@H]2[C@@H]([C@H]1C(=O)NC(CC1CCC1)C(=O)C(N)=O)C2(C)C)C(C)(C)C)C(C)C` (stereo partly drawn) [Compound 14035], the pKi was at least 7.12. For `CC(C)[C@@H](CNC(=O)Nc1ccccc1)NC(=O)N[C@H](C(=O)N1C[C@H]2[C@@H]([C@H]1C(=O)NC(CC1CCC1)C(=O)C(N)=O)C2(C)C)C(C)(C)C` (stereo partly drawn) [Compound 14002], the pKi is at least 7.12. Still for that read-out and setting: then `C=CCNC(=O)C(=O)C(CC1CC1)NC(=O)[C@@H]1[C@@H]2[C@H](CN1C(=O)[C@@H](NC(=O)N[C@H](CN(C)C(=O)OC)C(C)(C)C)C(C)(C)C)C2(C)C` (stereo partly drawn) [Compound 14031], with 6.60 to 7.12. With `CC(C)[C@@H](CNC(=O)NC(C)(C)C)NC(=O)N[C@H](C(=O)N1C[C@H]2[C@@H]([C@H]1C(=O)NC(CC1CCC1)C(=O)C(N)=O)C2(C)C)C(C)(C)C` (stereo partly drawn) [Compound 14059], the negative-log Ki (pKi) is at least 7.12.

Still in this experiment, the particulars now being: Table 5A, range.
Regarding `CCCCC(NC(=O)[C@@H]1[C@@H]2[C@H](CN1C(=O)[C@@H](NC(=O)N[C@H](CN(CC)S(=O)(=O)CC)C(C)(C)C)C1Cc3ccccc3C1)C2(C)C)C(=O)C(=O)NCCC` (stereo partly drawn) [Compound 11403], the pKi was at least 7.12. On to `C=CCNC(=O)C(=O)C(CCC)NC(=O)[C@@H]1[C@@H]2[C@H](CN1C(=O)[C@@H](NC(=O)N[C@H](CN(C)S(=O)(=O)c1ccccn1)C(C)(C)C)C1Cc3ccccc3C1)C2(C)C` (stereo partly drawn) [Compound 11393], for which the pKi was at least 7.12.

The same experiment, now with this note: Table 6.
Consider `C=CCNC(=O)C(=O)C(CCCC)NC(=O)[C@@H]1[C@@H]2[C@H](CN1C(=O)[C@@H](NC(=O)N[C@H](CN(C)S(=O)(=O)N(C)C)C(C)(C)C)C(C)(C)C)C2(C)C` (stereo partly drawn) [drawing 58], for which the pKi was 7.96.

The pKi is the Ki on a negative log10 scale, so that one unit is a factor of ten.
